{
  "sequences": {"note": "Chains of the proteins cited; added tags and fusions are not shown.", "UniProt O15527, whole entry": "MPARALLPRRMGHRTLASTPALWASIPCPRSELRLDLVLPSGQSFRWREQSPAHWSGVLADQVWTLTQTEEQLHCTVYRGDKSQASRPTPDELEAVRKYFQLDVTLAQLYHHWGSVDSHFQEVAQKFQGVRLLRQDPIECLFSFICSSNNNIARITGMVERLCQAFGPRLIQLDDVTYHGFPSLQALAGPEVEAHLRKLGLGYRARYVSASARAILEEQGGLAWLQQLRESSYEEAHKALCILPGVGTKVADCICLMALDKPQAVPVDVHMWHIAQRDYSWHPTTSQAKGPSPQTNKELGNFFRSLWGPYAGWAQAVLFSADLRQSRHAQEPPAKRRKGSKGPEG"},
  "source": "patent US20170038365A1",
  "about": "“SMALL MOLECULE INHIBITORS OF 8-OXOGUANINE DNA GLYCOSYLASE-1 (OGG1)” (OREGON HEALTH & SCIENCE UNIVERSITY, priority 2015, published 2017)",
  "molecular_target": "OGG1 (Homo sapiens, UniProt O15527)",
  "test": "fluorescence-based OGG1 activity assay (TAMRA/BHQ2 8-oxo-Gua substrate)",
  "conditions": "hydrazide forms vs parent acyl hydrazones",
  "data": [
    {"smiles": "NNC(=O)c1sc2ccccc2c1Cl", "values": [
      {"measurement": "OGG1 IC50 values compared with parent molecules", "result": "less than or equal to their parent molecules"}
    ]}
  ]
}
